# Reference: PubChem BioAssay AID803 (The Scripps Research Institute Molecular Screening Center, 2007)
# Chains of the proteins cited; added tags and fusions are not shown.
# UniProt O43603, whole entry: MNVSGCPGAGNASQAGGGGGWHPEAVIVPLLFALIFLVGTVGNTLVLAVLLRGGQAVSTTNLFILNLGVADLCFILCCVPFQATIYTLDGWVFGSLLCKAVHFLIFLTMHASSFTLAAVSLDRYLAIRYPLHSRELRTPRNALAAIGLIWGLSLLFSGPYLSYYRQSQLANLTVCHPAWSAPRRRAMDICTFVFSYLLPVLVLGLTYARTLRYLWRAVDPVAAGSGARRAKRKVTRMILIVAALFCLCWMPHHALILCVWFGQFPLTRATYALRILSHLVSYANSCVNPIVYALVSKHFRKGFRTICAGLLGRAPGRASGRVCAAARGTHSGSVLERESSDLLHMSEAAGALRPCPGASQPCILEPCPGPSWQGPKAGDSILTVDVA
# Only a part is listed here, and it is no random draw. Active and inactive are the calls of the source. Cut-off read from the data, not from the text of the source: active = activation above about 5% (passing the limit was not always enough); inactive = the rest.
# Biological target: Galanin receptor type 2 (Homo sapiens) (UniProt O43603)
# Assay: GALR2 receptor agonists, primary screen, cell-based (AID 803);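 note: 0% = vehicle buffer wells and 100% = reference agonist at full effect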
# Conditions: GALR2-expressing cells, agonist activation read-out; at 5.6 µM; stronger effect = higher value
row,Compound,activation
1,CN1CCN(CCOC(=O)C(O)(c2ccccc2)c2ccccc2)CC1,inactive: -0.58%
2,O=C(NCC1(N2CCOCC2)CCCCC1)c1cc(=O)[nH]c2ccccc12,inactive: -1.48%
3,N#CC1(Nc2ccccc2)CCN(CCc2ccccc2)CC1,inactive: -1.49%
4,CN1CCC(Nc2cccc(F)c2)CC1,inactive: -1.07%
5,O=C(NCC1(N2CCOCC2)CCCCC1)c1cc2ccccc2o1,inactive: -0.23%
6,O=C(OC1CN2CCC1CC2)C1c2ccccc2Oc2ccccc21 (stereo not drawn),inactive: -0.45%
7,COc1ccc(NC2CCN(CCc3ccccc3)CC2)c(OC)c1,inactive: -2.3%
8,CCN1CCC(Nc2cccc(F)c2)CC1,inactive: -1.88%
9,CCC(CO)(C(=O)OC1CN2CCC1CC2)c1ccccc1 (stereo not drawn),inactive: 0.19%
10,CCOc1ncccc1C(=O)NCC1(N2CCOCC2)CCCCC1,inactive: 0.95%
11,N/C(=N\O)c1c(N)no[n+]1[O-],inactive: -1.05%
12,O=C(OC1CN2CCC1CC2)C1c2ccccc2C=Cc2ccccc21 (stereo not drawn),inactive: -0.94%
13,c1ccc(CN2CCC(Nc3ccccc3)CC2)cc1,inactive: -3.05%
